Experimental data taken from patent US9532519B2, “Plant growth regulator and use thereof” (Japan Science and Technology Agency, priority 2006, dated 2017).

Tested on: Arabidopsis
Experiment: Effect of concentration of oxidized glutathione on growth of Arabidopsis
Assay type: in vivo
Details: 5 mM GSSG
Description: The influence of concentration of oxidized glutathione on growth of Arabidopsis was examined. Specifically, soil filled in a pod of approximately 65 in width, 65 in depth, and 50 in height was immersed in 0 mM-, 0.01 mM-, 0.2 mM-, 1 mM-, 2 mM-, and 5 mM-GSSG solutions. Seeds of Arabidopsis were sown in such a manner that approximately three seeds existed in each pod, and the seeds were observed chronologically 3 weeks after the sowing.

oxidized glutathione [GSSG]
growth of Arabidopsis at high concentration: the growth of Arabidopsis was greatly prevented and much of Arabidopsis withered
